This is a selection; strong and weak results do not stand in their true shares. The source made the active and inactive calls.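 How the source made its calls: active means compounds whose plate-normalised and pattern-corrected inhibition of the luciferase reporter signal at the single screening dose is 50% or more; inactive means the rest.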

The assay can be described thus: inhibitors of TROY-driven NF-kB signaling, primary screen, Q293 LMP1-TROYcd cells, NF-kB luciferase, uHTS (AID 1347056). The conditions noted are these: Q293 LMP1-TROYcd NF-kB luciferase reporter, 4 h; at 10 µM; active compounds read high. (Reporter assays use an easily measured gene product as a stand-in for the process of interest.)
Broadly, the inhibition is the change of the read-out against control, counted positive when it falls. For the molecule `CCC(=O)N(c1ccccc1)C1(COC)CCN(CCc2cccs2)CC1`, the inhibition was inactive: -0.89%. `CCC(=O)N(c1ccccc1)C1(COC)CCN(CCn2nnn(CC)c2=O)CC1`: the inhibition was inactive: 20.5%.

(Values after PubChem BioAssay AID1347056 (Sanford-Burnham Center for Chemical Genomics, 2019).)
